Measured values as given in PubChem BioAssay AID438 (Columbia University Molecular Screening Center, 2006).
The list shows a part of the results, in another mix than the full data. Calls of active or inactive are those of the source.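 How the source made its calls: active means inhibition above 20% together with a positive visual image hit; inconclusive means visual image hit but inhibition not above 20%; inactive means no visual image hit.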

Test: inhibitors of TNFa-induced NFkB p65 translocation, primary screen, imaging, HUVEC, MLSMR starter and 10KST1 sets (AID 438);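 further: compound added about 3h40 before a 20 min TNFalpha stimulation; signal is the nuclear over cytoplasmic p65 intensity ratio per well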
Conditions: HUVEC TNFa-induced p65 nuclear translocation, at 2 µM, stronger effect = higher value, 0% TNFa-plus-vehicle, 100% no-TNFa wells

Row | SMILES | inhibition
1 | Fc1ccccc1NC1CCN(Cc2ccccc2)CC1 | inactive: -1.7%
